Like-named read-outs stand apart in the source and are kept apart here.
Tests used:
[1] = Single-dose pharmacokinetics of concomitant cannabidiol product and kratom product; assay type: in vivo, male Sprague-Dawley rats; details: minor kratom alkaloid/metabolite in plasma, n = 5, mean ± SEM
Description: Male Sprague-Dawley rats (weight 250 ± 25 g) were obtained from Envigo (Indianapolis, IN, USA) with indwelling jugular vein catheters. Animals were acclimated for ≥72 h in a temperature- and humidity-controlled vivarium on a 12 h light/dark cycle. All studies were approved by the University of Florida’s Institutional Animal Care and Use Committee (IACUC) and carried out in accordance with Association for Assessment and Accreditation of Laboratory Animal Care International (AAALAC) and National Institute of Health (NIH) guidelines. In the single-dose studies, rats were fasted for 10 h prior to dosing and an additional 2 h post-dose.
For the single-dose study, rats were pretreated with 50 mg/kg cannabidiol by oral gavage and, after 30 min, were dosed with 0.8 mL/kg OPMS Gold solution. A period of 30 min was observed between doses to reduce the likelihood of interactions between the formulations in the stomach. Rats were connected to an automatic blood collection system (BASi, West Lafayette, IN, USA), and blood samples were taken pre-kratom product dose and 0.08, 0.17, 0.25, 0.5, 1, 2, 3, 4, 6, 8, 12, 18, 24, 30, 36, 42, and 48 h after kratom product dose administration. […]
Samples were analyzed using previously validated ultraperformance liquid chromatography-tandem mass spectrometry (UPLC-MS/MS) methods for the quantification of cannabinoids and alkaloids in rat plasma. […]
For the cannabinoid bioanalytical method, a 1.7 µm, 2.1 x 100 mm C18 BEH column was utilized with a pre-column of the same chemistry (Waters, Milford, MA, USA) held at 40 °C. […] Cannabidiol was detected in positive electrospray ionization mode using multiple reaction monitoring.
For the peak separations of kratom alkaloids required for quantification, a 1.7 µm, […] × 100 mm C18 BEH column with a pre-column of the same chemistry (Waters, Milford, MA, USA) was utilized and held at 50 °C throughout the analysis. […] The alkaloids were detected in positive electrospray ionization mode using multiple reaction monitoring. […]

[2] = set-up: method as in PMID 33620222; details: minor kratom alkaloid/metabolite in plasma; single oral dose of kratom product alone; n = 4; mean ± SEM; cited from earlier work
[3] = set-up: method as in PMID 31838282; details: cited from earlier work

**Q.** With corynantheidine as the substance, how does the “AUC0–24” value [1] read?
**A.** 195.9 ± 111.1 ng·h/mL

**Q.** What about the Cmax [1] of the same substance?
**A.** 12.9 ± 2.0 ng/mL

**Q.** What about the Tmax [1] of the same substance?
**A.** 12.6 ± 11.4 h

**Q.** What about the “AUC0–24” value [2] of the same substance?
**A.** 30.4 ± 9.1 ng·h/mL

**Q.** What about the Cmax [2] of the same substance?
**A.** 3.1 ± 0.5 ng/mL

**Q.** What about the Tmax [2] of the same substance?
**A.** 3.1 ± 1.7 h

**Q.** What about the oral bioavailability [3] of the same substance?
**A.** 50%

From article PMC10974275, “Pharmacokinetic Interaction of Kratom and Cannabidiol in Male Rats” (Pharmaceutics, 2024)
